# Yeast mating assay 1: variants of the scFv Ab-14

Reference: Engelhart et al. 2022, doi:10.1038/s41597-022-01779-4. File: FLAb, binding data.

Binding partner: SARS-CoV-2 spike HR2 peptide, sequence PDVDLGDISGINAS.

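Phage display of a naive human antibody library on the peptide gave the parent. AAYL50 was designed without a model: most single CDR substitutions and a random sample of double and triple ones. In AlphaSeq, yeast of one mating type display the scFv and yeast of the other type display the target. The frequency of each diploid, read from paired DNA barcodes, reflects how well the two displayed proteins bind. Scores were corrected for input abundance and mapped to Kd with protein pairs of known affinity run in the same pool. Each pool was mated in three replicate cultures.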

Parent: Ab-14, a human scFv built as VH, a 15-residue (Gly4Ser)3 linker, VL. Only the CDRs of the light chain vary.
VH: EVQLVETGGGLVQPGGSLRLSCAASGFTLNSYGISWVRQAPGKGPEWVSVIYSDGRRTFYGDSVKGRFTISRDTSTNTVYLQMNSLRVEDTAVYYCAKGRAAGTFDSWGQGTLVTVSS
VL: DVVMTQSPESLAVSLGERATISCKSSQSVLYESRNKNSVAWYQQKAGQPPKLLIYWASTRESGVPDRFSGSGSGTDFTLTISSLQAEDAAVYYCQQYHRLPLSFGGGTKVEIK

Each variant is given by its three light chain CDRs, as the data file delimits them; those of the parent are KSSQSVLYESRNKNSVA, WASTRES, QQYHRLPLS.
The read-out is the apparent dissociation constant on a log10 scale (nM): the lower, the stronger.
The mean shown is taken over the replicates in which the pair was detected.
A pair that was not seen in any replicate is written "nd"; this usually means weak binding, but a binder can also be missed.
Nonspecific signal, from three strains lacking the peptide, appeared in 18% of pairings of library AAYL50, centred on 4.19 (5% of these signals below 2.99); values are not corrected for it.
For reference, the parent read 0.65 as the reference entry and 1.68 as a member of this library.

The variant WTSQSVLMESRNKNSVA | WASTRES | QQYHRLPLS gave 2.92 (3 of 3 replicates).
The variant KSSQSVLYESRNFNSVA | WASTRES | QQPHSLPLS gave nd (0 of 3 replicates).
The variant KSSQSVLYESRNKNSVA | WASTRES | TRYHRLPLP gave 0.73 (3 of 3 replicates).
The variant KSSQKVLRESRNKNSHA | WASTRES | QQYHRLPLS gave 4.76 (1 of 3 replicates).
The variant KSSDSVLYESRNKNSVA | WAFTGES | QQYHRLPLS gave nd (0 of 3 replicates).
The variant KSSQSVLNESRNKNSVQ | WSSTRES | QQYHRLPLS gave 3.55 (1 of 3 replicates).
The variant KSPQSVLEESRNKNSVA | WASTRES | QQYHRLPLS gave 0.47 (3 of 3 replicates).
The variant KSSQSVLIESRNKNSVA | WASTMES | QEYHRLPLS gave 4.19 (3 of 3 replicates).
The variant KSSQDVLQESRNKNSVA | WASTRES | QYYHRLPLS gave nd (0 of 3 replicates).
The variant KSSQSVLYESRNHNSVA | WASTRES | GQYHWLPLS gave 0.51 (3 of 3 replicates).
The variant KRSQSVLYEFRNKNSVA | SASTRES | QQYHRLPLS gave 0.39 (3 of 3 replicates).
The variant KSFQSVLYESRNKNCVA | WACTRES | QQYHRLPLS gave nd (0 of 3 replicates).
The variant KSSQSVRYESRQKNSVA | WADTRES | QQYHRLPLS gave 1.37 (3 of 3 replicates).
The variant KSSQSVLYESRNKNSVA | QAATRES | QQYHRLPWS gave nd (0 of 3 replicates).
The variant KSSQSVLYDSRNKNSNA | WASTRES | QQYHRLPLS gave nd (0 of 3 replicates).
The variant KHSQSVLNESRNKNSVA | WASTRES | QQYHRLPLF gave 0.65 (3 of 3 replicates).
The variant KSSQSVLYESRNKYSVA | SASTRES | QQYHRLPKS gave 0.56 (3 of 3 replicates).
The variant KSSQSVLTESRNVNSVA | WASTRES | QQYHRLNLS gave 2.61 (3 of 3 replicates).
The variant KWSQSKLYESWNKNSVA | WASTRES | QQYHRLPLS gave 2.98 (1 of 3 replicates).
The variant KSSQSVLYHERNKNSMA | WASTRES | QQYHRLPLS gave 1.92 (3 of 3 replicates).
The variant KSSQSVDYESRNKNSVA | WDSTRES | DQYHRLPLS gave 2.59 (2 of 3 replicates).
The variant KSSQSQLYESRNYNSVA | QASTRES | QQYHRLPLS gave -0.06 (3 of 3 replicates).
The variant KSMQSVLWESRNKNSVA | WASTRES | QQNHRLPLS gave 3.98 (1 of 3 replicates).
The variant KSSQSVLYESRNKNSVA | WAGTRES | QQYHQLPLS gave 1.27 (3 of 3 replicates).
The variant KSSQSVLYESRNKNSIA | WASTREK | QQYHRLPLA gave 1.09 (3 of 3 replicates).
The variant KSSQSVLYESRNKNSIQ | WASTRES | QQYHRLPAS gave nd (0 of 3 replicates).
The variant KKSQSVLPESRNKNEVA | WASTRES | QQYHRLPLS gave 3.25 (3 of 3 replicates).
The variant KSSQSCLDESRNKNMVA | WASTRES | QQYHRLPLS gave 1.13 (3 of 3 replicates).
The variant KSQQSVCYESRNKNSVA | WASTRES | QQYHWLPLS gave nd (0 of 3 replicates).
The variant KSSQSELYESRNKNSVA | WASTRES | QMYHRLILS gave nd (0 of 3 replicates).
The variant KSSQSWLYSSRNKNSVA | WASTRGS | QQYHRLPLS gave 1.43 (3 of 3 replicates).
The variant KSSKYVLYESRNKNSVC | WASTRES | QQYHRLPLS gave nd (0 of 3 replicates).
The variant KSSQSVLYESRPKNSVA | WASTAES | QQYHRLPPS gave nd (0 of 3 replicates).
The variant KSSQSVLYESRNKNPVA | WASKRES | QQYHRLPLS gave 3.15 (3 of 3 replicates).
The variant KSSQSVLYESRNKNSVA | WASTFEI | QQIHRLPLS gave nd (0 of 3 replicates).
The variant KSSQSVLLESRNKNSVA | WASTRES | DQEHRLPLS gave 0.81 (3 of 3 replicates).

From the list, the first 5 with no signal in any replicate:

CDR-L1,CDR-L2,CDR-L3,"mean, log10 nM",detected
KSSQSVLYESRNFNSVA,WASTRES,QQPHSLPLS,nd,0 of 3
KSSDSVLYESRNKNSVA,WAFTGES,QQYHRLPLS,nd,0 of 3
KSSQDVLQESRNKNSVA,WASTRES,QYYHRLPLS,nd,0 of 3
KSFQSVLYESRNKNCVA,WACTRES,QQYHRLPLS,nd,0 of 3
KSSQSVLYESRNKNSVA,QAATRES,QQYHRLPWS,nd,0 of 3